Measured values: ChEMBL document CHEMBL1133627, “4-Anilino-6,7-dialkoxyquinoline-3-carbonitrile inhibitors of epidermal growth factor receptor kinase and their bioisosteric relationship to the 4-anilino-6,7-dialkoxyquinazoline inhibitors” (J Med Chem, 2000)

Experiments:
Type in all cases: functional, cell-based
[1] = test system: SW-620; experiment: Concentration needed to inhibit 50% growth of human SW620 (colon carcinoma) cell lines
[2] = test system: SK-BR-3; experiment: Concentration needed to inhibit 50% growth of human SKBr3 (breast carcinoma) cell lines
[3] = test system: A-431; experiment: Concentration needed to inhibit 50% growth of the human A431 (epidermoid carcinoma) cell lines

Row | IC50 [1] | IC50 [2] | IC50 [3] | SMILES
1 | 8.76 µM | 13.2 µM | 5.28 µM | COc1ccc(Nc2c(C#N)cnc3cc(OC)c(OC)cc23)cc1OC
2 | 35.6 µM | 13.4 µM | 2.53 µM | COc1cc2ncc(C#N)c(Nc3cccc(C(F)(F)F)c3)c2cc1OC
3 | 3.43 µM | 1.19 µM | 0.94 µM | COc1cc2ncc(C#N)c(Nc3cc(Cl)ccc3O)c2cc1OC
4 | 17.3 µM | 2 µM | 2.14 µM | COc1cc2ncc(C#N)c(Nc3cccc([N+](=O)[O-])c3)c2cc1OC
